Assay results taken from patent publication US8268836B2, “Compound useful as a c-Met inhibitor” (Eli Lilly and Company, priority 2010, dated 2012).

The chains behind the UniProt entries cited, without tags or fusion partners. Residues count along the entry.
UniProt P08581, 25-1390 limits assumed: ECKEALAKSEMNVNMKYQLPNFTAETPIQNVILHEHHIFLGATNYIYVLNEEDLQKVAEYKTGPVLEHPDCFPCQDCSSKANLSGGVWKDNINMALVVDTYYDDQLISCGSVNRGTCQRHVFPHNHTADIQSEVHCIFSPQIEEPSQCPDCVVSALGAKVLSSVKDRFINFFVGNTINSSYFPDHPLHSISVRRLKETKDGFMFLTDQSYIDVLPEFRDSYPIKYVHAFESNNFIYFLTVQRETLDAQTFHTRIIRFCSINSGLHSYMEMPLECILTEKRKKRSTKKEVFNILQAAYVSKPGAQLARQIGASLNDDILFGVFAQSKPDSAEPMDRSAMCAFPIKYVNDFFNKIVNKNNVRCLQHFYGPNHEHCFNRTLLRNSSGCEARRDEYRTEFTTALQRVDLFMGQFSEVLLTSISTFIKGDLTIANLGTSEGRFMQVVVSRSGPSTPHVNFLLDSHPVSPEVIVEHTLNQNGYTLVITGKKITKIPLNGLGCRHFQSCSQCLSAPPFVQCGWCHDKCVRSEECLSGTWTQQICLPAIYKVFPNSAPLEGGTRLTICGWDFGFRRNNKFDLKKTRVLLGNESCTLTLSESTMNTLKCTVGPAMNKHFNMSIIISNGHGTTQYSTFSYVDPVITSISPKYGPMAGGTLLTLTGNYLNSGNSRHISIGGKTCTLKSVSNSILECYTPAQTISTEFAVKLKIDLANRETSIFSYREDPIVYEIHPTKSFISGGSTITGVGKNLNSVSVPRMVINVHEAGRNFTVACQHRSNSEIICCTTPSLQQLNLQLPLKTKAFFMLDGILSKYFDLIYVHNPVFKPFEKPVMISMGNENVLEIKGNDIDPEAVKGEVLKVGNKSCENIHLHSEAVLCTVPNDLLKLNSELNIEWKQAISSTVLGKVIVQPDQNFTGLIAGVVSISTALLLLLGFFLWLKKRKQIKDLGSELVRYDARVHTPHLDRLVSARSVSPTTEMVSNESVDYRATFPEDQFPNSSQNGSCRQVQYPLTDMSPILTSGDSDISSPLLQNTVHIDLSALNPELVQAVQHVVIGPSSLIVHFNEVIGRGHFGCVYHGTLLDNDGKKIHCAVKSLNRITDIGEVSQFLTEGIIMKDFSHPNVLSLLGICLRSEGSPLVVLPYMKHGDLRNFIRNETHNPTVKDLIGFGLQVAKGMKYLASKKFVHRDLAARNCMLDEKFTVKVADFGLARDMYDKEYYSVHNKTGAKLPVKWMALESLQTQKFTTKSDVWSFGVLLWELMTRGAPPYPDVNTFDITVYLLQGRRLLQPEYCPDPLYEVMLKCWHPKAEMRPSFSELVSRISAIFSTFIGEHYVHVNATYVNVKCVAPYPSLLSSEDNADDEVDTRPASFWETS

Tests used:
[1] = molecular target: 99 kinases; experiment: Cerep Express Diversity Kinase Profile screening
Description: The Express Diversity Kinase Profile™ is a screening service developed by Cerep SA (Paris, France). Details of assay conditions and/or contact information can be found on their website http://www.cerep.fecerep/users/pages/catalog/profiles/catalog.asp).

[2] = molecular target: Met (pY1349) in NCl-H460 cells (Homo sapiens, UniProt P08581); experiment: HGF stimulated Met (pY1349) NCI-H460 cell-based ELISA; conditions: read-out: relative IC50, H460 assay (c-Met phosphorylation); HGF 100 ng/mL stimulated NCI-H460 cells
Method: NCl—H460 cells (purchased from ATCC) are cultured in RPMI 1640 media (Invitrogen) supplemented with 10% Fetal Bovine Serum (FBS) and plated (prior to becoming 70% confluent) in 96-well flat-bottom plates at a density of 20,000 cells per well in 80 μL volume. The cells are then incubated overnight in a cell culture incubator (5% CO2, 95% Relative Humidity (RH) and 37° C.) and allowed to attach to the plate. The following morning the cells are washed with 2 volumes of a Reduced Serum Media (RSM, RPMI 1640 media supplemented with 0.5% FBS). After removal of the last wash, 80 μL of RSM is added to each well of the cell plates. The cell plates are incubated for 2.5 h in a cell culture incubator, and then dosed with compounds. Compound inhibitors are first solubilized at 10 mM in 100% DMSO and then diluted to 100 μM with 2% DMSO RSM. […] After 1 h capture (at RT) the MSD® plate wells are washed with 1× Tris Wash Buffer, and then 150 μL of 1× Read Buffer T (with surfactant, MSD®) is added. Immediately after the addition of the Read Buffer, the plates are analyzed with a SECTOR 6000 MSD® Imager plate reader. Relative IC50 values are determined using MSD activity units by calculating percent inhibition with respect to on-plate “MIN” and “MAX” controls and then fitting the percent inhibition values and ten-point dose response data to a four-parameter logistic equation.

[3] = Kinetic solubility screen (nephelometry); conditions: 50 mM phosphate buffer pH 7.4, 2 h RT, from 10 mM DMSO
Method: The assay is used to determine the concentration range in which a compound that has been pre-solubilized in DMSO at 10 mM will precipitate from a solution. The assay is conducted in a screening format on a 96-well plate and measures the nephelometry (light scattering) from precipitated compound in aqueous phosphate buffer (50 mM; pH 7.4). This method consists of a 2-hour RT (room temperature) incubation of compound in buffer at concentrations of 10, 20, 40, 60, 80, and 100 μM (where % DMSO is kept constant). Plates are pre-read by the nephelometer to determine if scratches or dust particles are present and this is used for background subtraction. The reported values are the concentrations at which the last soluble and first insoluble are achieved. These assays are not optimized to assess equilibrium solubility or determine a “true” kinetic solubility.

[4] = Rat bioavailability study; conditions: Example 1 dosed as mesylate salt
Method: In rat bioavailability studies, each compound is administered intravenously (IV) or orally (PO). Intravenous dosing is formulated in solution formulation and oral dosing is formulated in 10% w/v acacia. Rat blood samples are collected using anti-coagulant (EDTA) collection tubes and centrifugation is performed to obtain plasma samples. Aliquots of plasma are pipetted and stored immediately at <−20° C. Shipments of plasma samples are packed in dry ice if needed and samples are frozen at <−20° C. until analysis.
A stock solution of each drug is prepared and is diluted into pooled rat plasma to prepare standards. Plasma standards or samples are treated by protein precipitation or liquid-liquid extraction using organic solvent containing internal standard. The mixtures are centrifuged and aliquots of the resulting supernatant fractions are transferred. In the case of protein precipitation, supernatant is diluted and analyzed using a Mass Spectrometer coupled to a HPLC System and an autosampler. In the case of liquid-liquid-extraction, supernatant is dried under N2 at 40° C., reconstituted and analyzed using a Mass Spectrometer coupled to a HPLC System and an autosampler. Quantitation is performed using multiple reaction monitoring (MRM) and linear regression plots of compounds to internal standard peak area ratios versus drug concentrations.

- Kinases inhibited in Cerep screening of 99 kinases [1]: inhibited only c-Met
- IC50 [2]: 65 nM
- 1st insoluble pH 7.4 [3]: 49 μM
- Last soluble pH 7.4 [3]: 29 μM
- Cl ([4]; IV 1 mg/kg solution): 31 mL/min/kg
- T½ ([4]; IV 1 mg/kg solution): 36 min
- Vdss ([4]; IV 1 mg/kg solution): 0.8 L/kg
- AUC ([4]; PO 10 mg/kg in 10% acacia): 794 ng·h/mL
- Cmax ([4]; PO 10 mg/kg in 10% acacia): 164 ng/mL
- Tmax ([4]; PO 10 mg/kg in 10% acacia): 55 min
- F % (oral bioavailability) ([4]; PO 10 mg/kg vs IV 1 mg/kg): 14.6%
SMILES: Cn1cc(-c2ccc3nnc(Sc4ccc5ncn(C)c5c4)n3n2)cn1
